The list shows a part of the results, in another mix than the full data. Records with an inconclusive call do not appear. The source made the active and inactive calls. The call rests on the fitted dose curve; in most records, active means well fitted activation curve with a large enough effect; inconclusive means small, poorly fitted or top-dose-only effect, or another doubt; inactive means no such curve, though single readings can be large or run the other way.

A short description of the experiment: qHTS of TDP-43 Inhibitors. Further: % of control where 0% means no effect; nearly all actives have a fitted effect of over 50% in size. The following applies: TDP-43 expressing yeast growth rescue, BacTiter-Glo, 24 h; at 46.1 µM (top of the series) unless noted.
As to `COc1ccccc1C(=O)NCC1(N2CCOCC2)CCCCC1`, the growth rescue (activation) is inactive: 9.15%. The value for `O=P1(N(CCCl)CCCl)SCCCS1` was inactive: -8.48%. Turning to `CCCCOc1ccc(C(=O)NCC2(N3CCOCC3)CCCCC2)cc1`, the growth rescue (activation) was inactive: 11.3%.

`O=C(NCC1(N2CCCCC2)CCCCC1)c1ccc(F)cc1`: the growth rescue (activation) was inactive: -9.33%. For `COc1ccc(NC2CCN(CCc3ccccc3)CC2)c(OC)c1`, the growth rescue (activation) is inactive: -11.1%. The value for `CCOC(=O)N1CCC(Nc2ccc(F)cc2)CC1` was inactive: 16.8%; that for `O=c1[nH]c2ccccc2n1C1CCN(C(c2ccccc2)c2nnnn2C2CCCCC2)CC1` (stereo unspecified) was inactive: 0%; that for `CCOC(=O)N1CCC(Nc2cccc(C)c2)CC1` was inactive: 16.3%. As for `COc1cc(C(=O)NCC2(N(C)C)CCCCC2)ccc1OC(F)F`, the growth rescue (activation) was inactive: -21.6%. Take `O=c1[nH]c2ccccc2n1C1CCN(C(c2cccc3ccccc23)c2nnnn2C2CCCC2)CC1` (stereo unspecified): the growth rescue (activation) is inactive: 6.03%. In the case of `COc1ccc(C(=O)NCC2(N3CCCCC3)CCCCC2)cc1`, the growth rescue (activation) was inactive: 1.62%. The value for `CC(C)(C)OC(=O)N1CCC(N(C(=O)c2ccccc2)c2ccc(F)cc2)CC1` was inactive: 14.1%.

As for `COc1ccc(C(=O)NCC2(N3CCCCC3)CCCCC2)c(OC)c1OC`, the growth rescue (activation) was inactive: -20.4% [at 0.397 µM].

Take `CCC(c1nnnn1C1CCCC1)N1CCC(n2c(=O)[nH]c3ccccc32)CC1` (stereo unspecified): the growth rescue (activation) is inactive: 0%. Regarding `O=C(NCC1(N2CCCCC2)CCCCC1)c1ccc(=O)[nH]c1`, the growth rescue (activation) is inactive: 9.07%. Turning to `O=C(NCC1(N2CCCCC2)CCCCC1)c1cccs1`, the growth rescue (activation) is inactive: 8.23%. Under `CCCCn1nnnc1C(c1cccs1)N1CCC(n2c(=O)[nH]c3ccccc32)CC1` (stereo unspecified) stands inactive: 14.3%; under `CSc1ccccc1C(=O)NCC1(N2CCCCC2)CCCCC1`, inactive: -7.98%; under `Cc1cccc(NC2(C#N)CCN(Cc3ccccc3)CC2)c1`, inactive: 21.3%.

Take `O=C(NCC1(N2CCCCC2)CCCCC1)c1ccc(Cl)nc1`: the growth rescue (activation) is inactive: 5.77%.

As for `O=c1[nH]c2ccccc2n1C1CCN(C(c2ccccc2OC(F)(F)F)c2nnnn2C2CCCCC2)CC1` (stereo unspecified), the growth rescue (activation) was inactive: 24.1%.

As for `Cc1cc(C)cc(N(C(=O)c2ccccc2)C2CCN(C(=O)OC(C)(C)C)CC2)c1`, the growth rescue (activation) was inactive: -11.7%. The value for `O=C(NCC1(N2CCOCC2)CCCCC1)c1cc2ccccc2o1` was inactive: 15%; that for `N#CC1(Nc2ccccc2)CCN(Cc2ccccc2)CC1` was inactive: -4.3%; that for `O=C(NCC1(N2CCCCC2)CCCCC1)c1ccc(Cl)s1` was inactive: 14.7%. Consider `O=C(OC1CN2CCC1CC2)C1c2ccccc2Oc2ccccc21` (stereo unspecified), for which the growth rescue (activation) is inactive: 25.9%. Under `O=c1[nH]c2ccccc2n1C1CCN(C(c2cc3ccccc3o2)c2nnnn2C2CCCCC2)CC1` (stereo unspecified) stands inactive: 0%; under `COc1ccc(Cl)cc1C(=O)NCC1(N2CCOCC2)CCCCC1`, inactive: -0.311%; under `O=C1C(O)=C([N+](=O)[O-])C(=O)C(O)=C1[N+](=O)[O-]`, inactive: -24.2%. The value for `CCOC(=O)N1CCC(Nc2ccc(OC)cc2)CC1` was inactive: -3.55%. With `CCCCn1nnnc1C(c1ccc(OC)cc1)N1CCC(n2c(=O)[nH]c3ccccc32)CC1` (stereo unspecified), the growth rescue (activation) is inactive: 6.2%.
